Results: patent US8796250B2, “Diaryl ureas for diseases mediated by PDGFR” (Bayer Healthcare LLC, priority 2003, dated 2014)

By UniProt entry, the sequences of proteins in these tests, tags left out. Residues count along the entry.
UniProt P05622, 32-1098: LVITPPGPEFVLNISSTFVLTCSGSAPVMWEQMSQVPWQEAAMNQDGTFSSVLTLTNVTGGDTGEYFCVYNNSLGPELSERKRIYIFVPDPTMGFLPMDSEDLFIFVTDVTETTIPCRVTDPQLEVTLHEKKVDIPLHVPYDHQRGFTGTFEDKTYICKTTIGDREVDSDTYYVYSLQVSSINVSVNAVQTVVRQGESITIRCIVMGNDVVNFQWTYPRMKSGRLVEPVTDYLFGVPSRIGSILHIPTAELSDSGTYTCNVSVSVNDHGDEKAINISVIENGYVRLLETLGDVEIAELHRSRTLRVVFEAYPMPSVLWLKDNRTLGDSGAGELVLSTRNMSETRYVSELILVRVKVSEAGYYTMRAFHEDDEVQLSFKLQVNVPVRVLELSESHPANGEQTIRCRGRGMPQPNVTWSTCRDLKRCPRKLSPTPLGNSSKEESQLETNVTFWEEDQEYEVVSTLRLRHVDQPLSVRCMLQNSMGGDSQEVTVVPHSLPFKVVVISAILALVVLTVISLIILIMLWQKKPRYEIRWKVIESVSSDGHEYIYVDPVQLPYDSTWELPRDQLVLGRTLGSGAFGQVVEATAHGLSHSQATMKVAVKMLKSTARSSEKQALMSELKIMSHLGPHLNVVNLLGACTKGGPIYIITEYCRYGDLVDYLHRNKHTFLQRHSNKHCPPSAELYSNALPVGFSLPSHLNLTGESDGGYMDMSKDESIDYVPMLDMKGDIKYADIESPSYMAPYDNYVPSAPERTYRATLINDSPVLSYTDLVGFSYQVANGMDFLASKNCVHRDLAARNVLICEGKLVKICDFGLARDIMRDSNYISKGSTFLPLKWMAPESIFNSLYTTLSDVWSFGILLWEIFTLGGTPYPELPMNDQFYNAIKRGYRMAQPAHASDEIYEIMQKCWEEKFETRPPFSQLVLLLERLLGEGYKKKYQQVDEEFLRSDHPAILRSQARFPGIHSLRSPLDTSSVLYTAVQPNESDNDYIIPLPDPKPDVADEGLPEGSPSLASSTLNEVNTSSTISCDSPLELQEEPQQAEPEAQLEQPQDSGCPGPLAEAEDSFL

Biological target: T1, mouse PDGFR (PDGFR beta) (Mus musculus, UniProt P05622)
T1 construct: made in house
Experiment: Murine PDGFR FRET Biochemical Assay
Conditions: 1 nM mouse PDGFR, 20 μM ATP, TR-FRET; read-out: IC50 in biochemical assay (inhibition of PDGFR)
Excerpt: Murine PDGFR FRET Biochemical Assay
Reaction is initiated upon addition of enzyme.

Compound: CNC(=O)c1cc(Oc2ccc(NC(=O)Nc3ccc(Cl)c(C(F)(F)F)c3)c(F)c2)ccn1 [N-(4-chloro-3-(trifluoromethyl)phenyl)-N′-(4-(2-(N-methylcarbamoyl)-4-pyridyloxy)-2-fluorophenyl) urea]
- IC50: < 10 µM
